Experimental data: ChEMBL document CHEMBL4665709, “Rational Avoidance of Protease Cleavage Sites and Symmetrical End-Tagging Significantly Enhances the Stability and Therapeutic Potential of Antimicrobial Peptides” (J Med Chem, 2020)
≈ marks a conversion by molar mass, not a printed value.

Tests used:
Escherichia coli [1] = assay: Antibacterial activity against Escherichia coli ATCC 25922 after 18 to 24 hrs in presence of 100% human serum by CLSI-based broth microdilution method; assay type: functional; conditions: time hrs 18-24
Escherichia coli [2] = assay: Antibacterial activity against Escherichia coli ATCC 25922 after 18 to 24 hrs in presence of 4.5 mM K+ by CLSI-based broth microdilution method; assay type: functional; conditions: time hrs 18-24
Escherichia coli [3] = assay: Antibacterial activity against Escherichia coli UB1005 after 18 to 24 hrs by CLSI-based broth microdilution method; assay type: functional; conditions: time hrs 18-24
Staphylococcus aureus [4] = assay: Antibacterial activity against Staphylococcus aureus ATCC 29213 after 18 to 24 hrs in presence of 4.5 mM K+ by CLSI-based broth microdilution method; assay type: functional; conditions: time hrs 18-24
Staphylococcus aureus [5] = assay: Antibacterial activity against Staphylococcus aureus ATCC 29213 after 18 to 24 hrs by CLSI-based broth microdilution method; assay type: functional; conditions: time hrs 18-24
Escherichia coli [6] = assay: Antibacterial activity against Escherichia coli ATCC 25922 after 18 to 24 hrs in presence of 50% human serum by CLSI-based broth microdilution method; assay type: functional; conditions: time hrs 18-24
Staphylococcus aureus [7] = assay: Antibacterial activity against Staphylococcus aureus ATCC 29213 after 18 to 24 hrs in presence of 6 uM NH4+ by CLSI-based broth microdilution method; assay type: functional; conditions: time hrs 18-24
[8] = test system: Staphylococcus epidermidis; assay: Antibacterial activity against Staphylococcus epidermidis ATCC 12228 after 18 to 24 hrs by CLSI-based broth microdilution method; assay type: functional; conditions: time hrs 18-24
Staphylococcus aureus [9] = assay: Antibacterial activity against Staphylococcus aureus ATCC 29213 after 18 to 24 hrs in presence of 25% human serum by CLSI-based broth microdilution method; assay type: functional; conditions: time hrs 18-24
Escherichia coli [10] = assay: Antibacterial activity against Escherichia coli ATCC 25922 after 18 to 24 hrs by CLSI-based broth microdilution method; assay type: functional; conditions: time hrs 18-24
Escherichia coli [11] = assay: Antibacterial activity against Escherichia coli ATCC 25922 after 18 to 24 hrs in presence of 1 mM Mg2+ by CLSI-based broth microdilution method; assay type: functional; conditions: time hrs 18-24
Staphylococcus aureus [12] = assay: Antibacterial activity against Staphylococcus aureus ATCC 29213 after 18 to 24 hrs in presence of 100% human serum by CLSI-based broth microdilution method; assay type: functional; conditions: time hrs 18-24
Escherichia coli [13] = assay: Antibacterial activity against Escherichia coli ATCC 25922 after 18 to 24 hrs in presence of 25% human serum by CLSI-based broth microdilution method; assay type: functional; conditions: time hrs 18-24
Staphylococcus aureus [14] = assay: Antibacterial activity against Staphylococcus aureus ATCC 29213 after 18 to 24 hrs in presence of 6 uM Fe3+ by CLSI-based broth microdilution method; assay type: functional; conditions: time hrs 18-24
Staphylococcus aureus [15] = assay: Antibacterial activity against Staphylococcus aureus ATCC 29213 after 18 to 24 hrs in presence of 150 mM Na+ by CLSI-based broth microdilution method; assay type: functional; conditions: time hrs 18-24
Staphylococcus aureus [16] = assay: Antibacterial activity against Staphylococcus aureus ATCC 29213 after 18 to 24 hrs in presence of 8 uM Zn2+ by CLSI-based broth microdilution method; assay type: functional; conditions: time hrs 18-24
Escherichia coli [17] = assay: Antibacterial activity against Escherichia coli ATCC 25922 after 18 to 24 hrs in presence of 8 uM Zn2+ by CLSI-based broth microdilution method; assay type: functional; conditions: time hrs 18-24
Staphylococcus aureus [18] = assay: Antibacterial activity against methicillin-resistant Staphylococcus aureus 43300 after 18 to 24 hrs by CLSI-based broth microdilution method; assay type: functional; conditions: time hrs 18-24
Staphylococcus aureus [19] = assay: Antibacterial activity against Staphylococcus aureus ATCC 29213 after 18 to 24 hrs in presence of 50% human serum by CLSI-based broth microdilution method; assay type: functional; conditions: time hrs 18-24
Escherichia coli [20] = assay: Antibacterial activity against Escherichia coli ATCC 25922 after 18 to 24 hrs in presence of 6 uM NH4+ by CLSI-based broth microdilution method; assay type: functional; conditions: time hrs 18-24
Escherichia coli [21] = assay: Antibacterial activity against Escherichia coli ATCC 25922 after 18 to 24 hrs in presence of 150 mM Na+ by CLSI-based broth microdilution method; assay type: functional; conditions: time hrs 18-24
Staphylococcus aureus [22] = assay: Antibacterial activity against Staphylococcus aureus 11011 after 18 to 24 hrs by CLSI-based broth microdilution method; assay type: functional; conditions: time hrs 18-24
Staphylococcus aureus [23] = assay: Antibacterial activity against Staphylococcus aureus ATCC 29213 after 18 to 24 hrs in presence of 1 mM Mg2+ by CLSI-based broth microdilution method; assay type: functional; conditions: time hrs 18-24
Salmonella typhimurium [24] = assay: Antibacterial activity against Salmonella typhimurium 7731 after 18 to 24 hrs by CLSI-based broth microdilution method; assay type: functional, Salmonella enterica subsp. enterica serovar Typhimurium; conditions: Salmonella enterica, time hrs 18-24
Salmonella typhimurium [25] = assay: Antibacterial activity against Salmonella typhimurium 14028 after 18 to 24 hrs by CLSI-based broth microdilution method; assay type: functional, Salmonella enterica subsp. enterica serovar Typhimurium; conditions: Salmonella enterica, time hrs 18-24
Escherichia coli [26] = assay: Antibacterial activity against Escherichia coli ATCC 25922 after 18 to 24 hrs in presence of 6 uM Fe3+ by CLSI-based broth microdilution method; assay type: functional; conditions: time hrs 18-24

CC[C@H](C)[C@H](NC(=O)CN)C(=O)NCC(=O)N[C@@H](C)C(=O)N[C@H](C(=O)N[C@@H](CC(C)C)C(=O)N[C@@H](CCCCN)C(=O)N[C@H](C(=O)N[C@@H](CC(C)C)C(=O)N[C@H](C(=O)N[C@H](C(=O)NCC(=O)N[C@@H](CC(C)C)C(=O)N1CCC[C@H]1C(=O)N[C@@H](C)C(=O)N[C@@H](CC(C)C)C(=O)N[C@H](C(=O)N[C@@H](CO)C(=O)N[C@@H](Cc1c[nH]c2ccccc12)C(=O)N[C@H](C(=O)N[C@@H](CCCCN)C(=O)N[C@@H](CCCNC(=N)N)C(=O)N[C@@H](CCCCN)C(=O)N[C@@H](CCCNC(=N)N)C(=O)N[C@@H](CCC(N)=O)C(=O)N[C@@H](CCC(N)=O)C(N)=O)[C@@H](C)CC)[C@@H](C)CC)[C@@H](C)O)[C@@H](C)O)C(C)C)C(C)C [MELITTIN]
MIC (Escherichia coli [1]): 8 µM
MIC (Escherichia coli [2]): 2 µM
MIC (Escherichia coli [3]): 2 µM (≈ 5.69 µg/mL)
MIC (Staphylococcus aureus [4]): 2 µM
MIC (Staphylococcus aureus [5]): 2 µM (≈ 5.69 µg/mL)
MIC (Escherichia coli [6]): 8 µM
MIC (Staphylococcus aureus [7]): 2 µM
MIC [8]: 2 µM (≈ 5.69 µg/mL)
MIC (Staphylococcus aureus [9]): 8 µM
MIC (Escherichia coli [10]): 2 µM (≈ 5.69 µg/mL)
MIC (Escherichia coli [11]): 4 µM
MIC (Staphylococcus aureus [12]): 8 µM
MIC (Escherichia coli [13]): 8 µM
MIC (Staphylococcus aureus [14]): 2 µM
MIC (Staphylococcus aureus [15]): 4 µM
MIC (Staphylococcus aureus [16]): 2 µM
MIC (Escherichia coli [17]): 2 µM
MIC (Staphylococcus aureus [18]): 2 µM (≈ 5.69 µg/mL)
MIC (Staphylococcus aureus [19]): 4 µM
MIC (Escherichia coli [20]): 2 µM
MIC (Escherichia coli [21]): 4 µM
MIC (Staphylococcus aureus [22]): 2 µM (≈ 5.69 µg/mL)
MIC (Staphylococcus aureus [23]): 4 µM
MIC (Salmonella typhimurium [24]): 2 µM (≈ 5.69 µg/mL)
MIC (Salmonella typhimurium [25]): 2 µM (≈ 5.69 µg/mL)
MIC (Escherichia coli [26]): 2 µM
